The text below walks through data of article PMC4500896, “Frog intestinal perfusion to evaluate drug permeability: application to p-gp and cyp3a4 substrates” (Frontiers in Pharmacology, 2015).

The test system of this data set is frog intestine. Kind of data set: Frog in situ single pass intestinal perfusion (SPIP), parallel-tube model. The conditions noted are these: inhibitor concentration not given.

Regarding `CC(=O)N1CCN(c2ccc(OCC3COC(Cn4ccnc4)(c4ccc(Cl)cc4Cl)O3)cc2)CC1` (centres unmarked) [Ketoconazole, ketoconazole], the “Change in effective permeability coefficient of losartan in presence of inhibitor” value (probe losartan) is given as “significant change in effective permeability coefficient was not observed”. Moreover, the “Change in effective permeability coefficient of midazolam in presence of inhibitor” value (probe midazolam) is “Moderate change”.
